Results on one compound are retold here after ChEMBL document CHEMBL1155233, “Structure mechanism insights and the role of nitric oxide donation guide the development of oxadiazole-2-oxides as therapeutic agents against schistosomiasis” (J Med Chem, 2009).

In data set [1] the test system is Liver microsomes. Briefly: Metabolic stability in human liver microsomes assessed as compound remaining over 60 mins in absence of NADPH. The note with it: 1 h.
In data set [2] the test system is Liver microsomes. The experiment in a line: Metabolic stability in human liver microsomes assessed as compound remaining over 60 mins in presence of NADPH. As to conditions: 1 h. On the technique in general: Microsomes from liver hold many membrane-bound enzymes, among them those of drug oxidation.

With `N#Cc1c(-c2ccc(-c3no[n+]([O-])c3C#N)s2)no[n+]1[O-]`, the Stability worked out at 56% in the data set on Liver microsomes [1] and 3% in the data set with Liver microsomes [2].
